{"sequences": {"note": "Sequences of proteins named here, by UniProt entry; tags and fusion partners are left off.", "UniProt P13612, whole entry, looked up": "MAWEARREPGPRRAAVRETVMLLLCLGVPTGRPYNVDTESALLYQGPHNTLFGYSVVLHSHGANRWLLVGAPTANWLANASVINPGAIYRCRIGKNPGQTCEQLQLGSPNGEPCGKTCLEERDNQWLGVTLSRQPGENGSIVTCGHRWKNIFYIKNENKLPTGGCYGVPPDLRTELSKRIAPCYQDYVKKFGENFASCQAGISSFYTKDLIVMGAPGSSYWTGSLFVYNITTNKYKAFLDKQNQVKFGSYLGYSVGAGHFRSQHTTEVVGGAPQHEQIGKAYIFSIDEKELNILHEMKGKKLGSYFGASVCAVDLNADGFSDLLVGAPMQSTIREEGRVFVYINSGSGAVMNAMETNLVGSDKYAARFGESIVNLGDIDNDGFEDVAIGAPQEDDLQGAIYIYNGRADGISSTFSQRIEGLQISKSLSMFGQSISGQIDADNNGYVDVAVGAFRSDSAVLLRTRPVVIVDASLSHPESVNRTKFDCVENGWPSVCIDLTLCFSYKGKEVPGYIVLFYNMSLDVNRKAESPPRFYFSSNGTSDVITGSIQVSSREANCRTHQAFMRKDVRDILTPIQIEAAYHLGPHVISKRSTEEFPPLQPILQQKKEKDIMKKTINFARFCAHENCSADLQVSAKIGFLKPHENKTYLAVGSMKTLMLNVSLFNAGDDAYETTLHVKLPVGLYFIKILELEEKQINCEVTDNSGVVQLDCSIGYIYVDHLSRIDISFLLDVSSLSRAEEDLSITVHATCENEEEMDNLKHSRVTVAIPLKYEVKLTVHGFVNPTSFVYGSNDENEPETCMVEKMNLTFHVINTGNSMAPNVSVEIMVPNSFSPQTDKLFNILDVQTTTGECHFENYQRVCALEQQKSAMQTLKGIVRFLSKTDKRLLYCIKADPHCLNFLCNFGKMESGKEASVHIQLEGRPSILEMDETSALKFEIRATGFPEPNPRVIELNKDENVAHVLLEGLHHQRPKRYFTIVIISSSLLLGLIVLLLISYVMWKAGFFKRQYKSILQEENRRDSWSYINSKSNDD"}, "source": "PubChem BioAssay AID528", "about": "(NMMLSC, 2006)", "note": "The entries are a selection whose mix differs from that of the whole data set. Records with an inconclusive call do not appear. The source made the active and inactive calls.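 The calls were made as follows: active = fluorescent ligand binding to cells raised by more than 40% of the manganese-induced maximum; inconclusive = compound's own fluorescence above 85% of the ligand control signal; inactive = the rest.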"}
{"biological_target": "Integrin alpha-4 (Homo sapiens) (UniProt P13612)", "experiment": "increased LDV-FITC ligand binding on VLA-4 – Jurkat cells, flow cytometry, primary screen (AID 528);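 also: 0% = ligand binding without compound and 100% = manganese-stimulated maximal binding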", "conditions": "hits give high values, screened at 10 µM (by protocol)"}
{"molecule": "CP(=S)(Nn1cnnc1)Oc1ccccc1", "note": "(stereo unspecified)", "activation": "inactive: 4%"}
{"molecule": "Cc1ccccc1NP(C)(=O)Nc1ccccc1C", "activation": "inactive: -4%"}
{"molecule": "CP(=O)(Nc1ccc2c(c1)OCCO2)Oc1ccccc1", "note": "(stereo unspecified)", "activation": "inactive: 3%"}
{"molecule": "CN(C)CCOC(=O)C(O)(c1ccccc1)C1CCCCC1", "note": "(stereo unspecified)", "activation": "inactive: 6.5%"}
{"molecule": "CP(=O)(Nc1ccccn1)Oc1ccccc1", "note": "(stereo unspecified)", "activation": "inactive: 7%"}
{"molecule": "Cc1nc2ccc3ccccc3c2o1.O=[N+]([O-])c1cc([N+](=O)[O-])c(O)c([N+](=O)[O-])c1", "activation": "inactive: -13.5%"}
